Patent publication US12653798B2, “Fixed combination medicine for the control and management of neuropathic pain” (LABORATORIOS SILANES S.A. DE C.V., priority 2020, dated 2026)

Assay: Dissolution profile tests
Format: physicochemical

Compound: Cc1ncc(CO)c(CO)c1O.Cl [pyridoxine hydrochloride]
- % dissolved (t 5 min): 91.75%
- % dissolved (t 15 min): 97.08%
- % dissolved (t 30 min): 97.56%
- % dissolved (t 45 min): 97.84%
